In patent US9566336B2, “In situ gelling drug delivery system” (pSivida US, Inc., priority 2003, dated 2017):

Assay: In vitro release study of morphine from morphine-diclofenac co-drug/PLGA formulations, HPLC
Assay type: physicochemical
Conditions: 10% plasma in HA phosphate buffer, pH 7.4, 37° C.; co-drug was hydrolyzed in the release medium

In the case of “diclofenate ester of morphine [morphine-diclofenac co-drug]”, the “co-drug content in the release medium” value is reported as “No morphine-diclofenac co-drug was detected”.
